# Measured values published in patent US10456359B2, “Synergistic beverage composition” (Harsha Chigurupati, priority 2015, dated 2019).
# Experiments:
# Type in all cases: in vivo, Wistar albino rats
# [1] = tested on: serum C-reactive protein (CRP); test: CNS/immunology study, serum CRP, alcohol 5 days; conditions: Pro: Protection (%), rats, alcohol 5 Day
# Source text: (§1) For hangover, 1 day immunology parameter were considered and for CNS, 5 days immunology parameter were considered.
# interleukin-12 (IL-12) = test: CNS/immunology study, serum IL-12, alcohol 5 days; conditions: Pro: Protection (%), rats, alcohol 5 Day
# Source text: as §1
# [2] = tested on: Monocyte chemoattractant protein-1 (MCP-1); test: CNS/immunology study, serum MCP-1, alcohol 5 days; conditions: Pro: Protection (%), rats, alcohol 5 Day
# Method: (§2) The lowest detectable limit of the kit is 0.1 ng/ml (Wang L, Li Y, Chen J, et al. “Ischemic Cerebral Tissue and MCP-1 Enhance Rat Bone Marrow Stromal Cell Migration in Interface Culture.” Experimental Hematology, 30, 7, 2002, 831-836).
# as §1
# Interferon gamma (IFN-γ) = test: CNS/immunology study, serum IFN-gamma, alcohol 5 days; conditions: Pro: Protection (%), rats, alcohol 5 Day
# Source text: Distilled ethanol was obtained from Bengal Chemicals, West Bengal, India. Biochemical kits like AST, ALT, ALP and total protein were obtained from Span Diagnostics Ltd. Surat, India. Rat IL-12 ELISA kit (Elabscience Biotechnology Co. Ltd, WuHan, P.R.C.), Rat CRP ELISA kit (BD Biosciences, USA), Rat IFN-gamma ELISA kit (Biolegend, San Diego, Calif.) Rat MCP-1 ELISA kit (Elabscience Biotechnology Co. Ltd, WuHan, P.R.C.). All the chemicals used in the present study were of analytical grade and obtained from the following companies: Sigma (St. Louis, Mo., USA), Merck (Mumbai, India), S D fine chemicals (Mumbai, India) and Qualigen (Mumbai, India).
# as §1
# [3] = tested on: interleukin-12 (IL-12) from brain homogenate; test: CNS study, IL-12 from brain homogenate, alcohol 5 days; conditions: Pro: Protection (%), rats, alcohol 5 Day
# [4] = tested on: serum C-reactive protein (CRP); test: Hangover study, serum CRP, alcohol 1 day; conditions: 1 Day alcohol
# Source text: as §1
# [5] = tested on: Monocyte chemoattractant protein-1 (MCP-1) from brain homogenate; test: Hangover study, MCP-1 from brain homogenate, alcohol 1 day; conditions: 1 Day alcohol
# [6] = tested on: Monocyte chemoattractant protein-1 (MCP-1); test: Hangover study, serum MCP-1, alcohol 1 day; parameters: concentration or dose not given beside the values; conditions: 1 Day alcohol
# Method: as §2, §1
SMILES,CRP Pro [1] [%],IL12 Pro (interleukin-12 (IL-12)) [%],MCP-1 Pro [2] [%],IFN-Gamma Pro (Interferon gamma (IFN-γ)) [%],Brain IL12 Pro [3] [%],CRP Pro (Protection) [4] [%],Brain MCP-1 Pro (Protection) [5] [%],MCP-1 Pro (Protection) [6] [%]
"OC[C@@H](O)[C@@H](O)[C@H](O)[C@H](O)CO [0.5 Man, D-Mannitol]",5.46,5.08,5.29,1.58,4.92,5.48,3.49,
"OC[C@@H](O)[C@@H](O)[C@H](O)[C@H](O)CO [1.2 Man, D-Mannitol]",15.92,17.92,7.56,6.54,,,,
"OC[C@@H](O)[C@@H](O)[C@H](O)[C@H](O)CO [2.5 Man, D-Mannitol]",21.8,31.99,34.88,15.06,,,,22.75
